By UniProt entry, the sequences of proteins in these tests, tags left out. Where a name states a change or a piece, a line headed by the entry shows the natural chain unless it says otherwise.
UniProt P07949, whole entry: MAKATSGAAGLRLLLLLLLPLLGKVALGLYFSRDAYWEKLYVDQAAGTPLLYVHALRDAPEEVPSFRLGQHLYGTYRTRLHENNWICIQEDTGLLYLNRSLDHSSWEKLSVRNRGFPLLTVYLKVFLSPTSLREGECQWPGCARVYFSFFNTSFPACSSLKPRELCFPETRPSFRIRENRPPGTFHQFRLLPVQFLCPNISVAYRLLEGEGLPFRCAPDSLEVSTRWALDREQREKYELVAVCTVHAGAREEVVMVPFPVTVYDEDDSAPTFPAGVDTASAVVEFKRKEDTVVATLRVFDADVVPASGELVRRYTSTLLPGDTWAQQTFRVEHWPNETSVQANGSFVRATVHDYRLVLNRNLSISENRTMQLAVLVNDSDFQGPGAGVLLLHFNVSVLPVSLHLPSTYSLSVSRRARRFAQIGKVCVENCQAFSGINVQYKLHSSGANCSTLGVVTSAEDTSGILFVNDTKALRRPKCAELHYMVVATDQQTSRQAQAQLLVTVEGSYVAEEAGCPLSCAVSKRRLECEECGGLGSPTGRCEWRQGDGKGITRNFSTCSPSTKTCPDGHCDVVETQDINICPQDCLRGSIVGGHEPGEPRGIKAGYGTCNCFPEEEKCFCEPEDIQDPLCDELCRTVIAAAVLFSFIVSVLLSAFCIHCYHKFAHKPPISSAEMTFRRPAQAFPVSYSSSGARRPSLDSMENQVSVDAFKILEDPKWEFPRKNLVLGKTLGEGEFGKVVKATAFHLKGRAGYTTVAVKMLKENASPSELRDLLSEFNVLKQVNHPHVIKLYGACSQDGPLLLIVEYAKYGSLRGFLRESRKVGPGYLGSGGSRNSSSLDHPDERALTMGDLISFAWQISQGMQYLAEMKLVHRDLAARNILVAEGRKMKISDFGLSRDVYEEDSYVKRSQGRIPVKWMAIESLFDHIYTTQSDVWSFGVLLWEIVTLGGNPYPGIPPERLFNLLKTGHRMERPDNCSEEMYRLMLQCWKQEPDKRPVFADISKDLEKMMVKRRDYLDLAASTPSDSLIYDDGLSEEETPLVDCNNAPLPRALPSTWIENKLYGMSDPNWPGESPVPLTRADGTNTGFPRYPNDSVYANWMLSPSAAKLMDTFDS
UniProt O15379: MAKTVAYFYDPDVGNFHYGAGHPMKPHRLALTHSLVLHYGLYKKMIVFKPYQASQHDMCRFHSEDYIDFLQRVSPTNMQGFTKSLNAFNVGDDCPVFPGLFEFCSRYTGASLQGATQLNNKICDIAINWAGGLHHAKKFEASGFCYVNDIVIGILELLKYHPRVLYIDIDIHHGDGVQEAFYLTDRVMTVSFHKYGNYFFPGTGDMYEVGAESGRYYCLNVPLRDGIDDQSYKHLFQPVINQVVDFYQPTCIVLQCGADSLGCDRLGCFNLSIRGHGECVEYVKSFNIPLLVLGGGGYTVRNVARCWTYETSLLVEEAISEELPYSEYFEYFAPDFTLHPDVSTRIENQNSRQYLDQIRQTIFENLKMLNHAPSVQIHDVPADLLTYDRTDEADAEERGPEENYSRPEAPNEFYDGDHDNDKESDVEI
UniProt Q9UBN7: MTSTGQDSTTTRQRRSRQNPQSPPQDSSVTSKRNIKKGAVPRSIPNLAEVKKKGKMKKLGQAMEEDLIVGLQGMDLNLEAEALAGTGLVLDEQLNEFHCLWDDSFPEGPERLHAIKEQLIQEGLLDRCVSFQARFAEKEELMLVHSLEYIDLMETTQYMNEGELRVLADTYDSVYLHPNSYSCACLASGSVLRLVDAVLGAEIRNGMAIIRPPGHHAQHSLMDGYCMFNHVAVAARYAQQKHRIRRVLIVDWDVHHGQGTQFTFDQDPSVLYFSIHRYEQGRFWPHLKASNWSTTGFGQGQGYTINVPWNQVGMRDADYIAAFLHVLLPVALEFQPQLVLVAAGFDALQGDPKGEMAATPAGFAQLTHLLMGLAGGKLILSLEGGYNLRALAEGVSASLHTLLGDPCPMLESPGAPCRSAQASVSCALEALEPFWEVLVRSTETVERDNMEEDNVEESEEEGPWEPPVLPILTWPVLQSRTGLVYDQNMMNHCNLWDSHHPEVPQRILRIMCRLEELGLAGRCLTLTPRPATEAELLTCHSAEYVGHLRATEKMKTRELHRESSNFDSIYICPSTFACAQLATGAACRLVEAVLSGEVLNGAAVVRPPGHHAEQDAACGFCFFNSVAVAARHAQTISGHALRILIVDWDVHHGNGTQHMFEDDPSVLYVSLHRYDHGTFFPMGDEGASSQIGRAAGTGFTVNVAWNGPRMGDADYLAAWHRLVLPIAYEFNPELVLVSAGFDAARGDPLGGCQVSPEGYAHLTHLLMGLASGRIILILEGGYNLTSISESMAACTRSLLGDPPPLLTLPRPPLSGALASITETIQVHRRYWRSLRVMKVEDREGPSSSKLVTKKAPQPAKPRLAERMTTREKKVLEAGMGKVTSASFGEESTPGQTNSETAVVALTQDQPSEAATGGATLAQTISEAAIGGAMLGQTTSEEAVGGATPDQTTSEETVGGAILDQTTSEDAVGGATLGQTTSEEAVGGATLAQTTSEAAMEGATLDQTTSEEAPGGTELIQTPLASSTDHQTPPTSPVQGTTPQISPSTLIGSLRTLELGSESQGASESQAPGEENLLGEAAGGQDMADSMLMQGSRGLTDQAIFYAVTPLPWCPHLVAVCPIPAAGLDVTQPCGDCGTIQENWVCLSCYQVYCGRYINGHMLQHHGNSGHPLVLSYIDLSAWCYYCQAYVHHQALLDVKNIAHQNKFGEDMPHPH
UniProt Q9UQL6: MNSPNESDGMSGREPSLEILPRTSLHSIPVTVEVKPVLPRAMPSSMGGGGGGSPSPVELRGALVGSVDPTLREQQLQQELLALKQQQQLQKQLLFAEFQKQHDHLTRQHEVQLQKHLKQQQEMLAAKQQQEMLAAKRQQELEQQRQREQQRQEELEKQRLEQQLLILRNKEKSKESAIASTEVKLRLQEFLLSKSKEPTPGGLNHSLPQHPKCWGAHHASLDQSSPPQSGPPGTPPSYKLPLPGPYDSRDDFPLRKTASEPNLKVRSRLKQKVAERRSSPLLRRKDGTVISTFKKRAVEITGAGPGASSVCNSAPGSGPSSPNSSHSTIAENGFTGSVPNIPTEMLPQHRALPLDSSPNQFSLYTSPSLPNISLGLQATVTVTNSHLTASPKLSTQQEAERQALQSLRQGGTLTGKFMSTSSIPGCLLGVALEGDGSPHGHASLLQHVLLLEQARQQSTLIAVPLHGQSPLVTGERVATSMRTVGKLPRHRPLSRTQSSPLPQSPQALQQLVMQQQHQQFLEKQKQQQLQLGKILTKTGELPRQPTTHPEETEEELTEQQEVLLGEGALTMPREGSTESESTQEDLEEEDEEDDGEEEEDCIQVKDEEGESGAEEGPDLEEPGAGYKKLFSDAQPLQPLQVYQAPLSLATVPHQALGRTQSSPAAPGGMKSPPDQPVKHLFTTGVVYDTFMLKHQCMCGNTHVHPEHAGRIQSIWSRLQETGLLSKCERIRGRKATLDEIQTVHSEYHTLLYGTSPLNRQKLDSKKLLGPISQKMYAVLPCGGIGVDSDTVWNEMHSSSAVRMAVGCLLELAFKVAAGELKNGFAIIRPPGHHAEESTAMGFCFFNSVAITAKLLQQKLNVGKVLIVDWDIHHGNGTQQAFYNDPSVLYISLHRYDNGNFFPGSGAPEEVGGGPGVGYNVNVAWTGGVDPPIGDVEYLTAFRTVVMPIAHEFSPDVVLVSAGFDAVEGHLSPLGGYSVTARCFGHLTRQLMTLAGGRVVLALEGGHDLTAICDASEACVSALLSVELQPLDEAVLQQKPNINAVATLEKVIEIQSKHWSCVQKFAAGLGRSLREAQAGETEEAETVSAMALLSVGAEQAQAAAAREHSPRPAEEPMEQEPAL
UniProt Q8WUI4: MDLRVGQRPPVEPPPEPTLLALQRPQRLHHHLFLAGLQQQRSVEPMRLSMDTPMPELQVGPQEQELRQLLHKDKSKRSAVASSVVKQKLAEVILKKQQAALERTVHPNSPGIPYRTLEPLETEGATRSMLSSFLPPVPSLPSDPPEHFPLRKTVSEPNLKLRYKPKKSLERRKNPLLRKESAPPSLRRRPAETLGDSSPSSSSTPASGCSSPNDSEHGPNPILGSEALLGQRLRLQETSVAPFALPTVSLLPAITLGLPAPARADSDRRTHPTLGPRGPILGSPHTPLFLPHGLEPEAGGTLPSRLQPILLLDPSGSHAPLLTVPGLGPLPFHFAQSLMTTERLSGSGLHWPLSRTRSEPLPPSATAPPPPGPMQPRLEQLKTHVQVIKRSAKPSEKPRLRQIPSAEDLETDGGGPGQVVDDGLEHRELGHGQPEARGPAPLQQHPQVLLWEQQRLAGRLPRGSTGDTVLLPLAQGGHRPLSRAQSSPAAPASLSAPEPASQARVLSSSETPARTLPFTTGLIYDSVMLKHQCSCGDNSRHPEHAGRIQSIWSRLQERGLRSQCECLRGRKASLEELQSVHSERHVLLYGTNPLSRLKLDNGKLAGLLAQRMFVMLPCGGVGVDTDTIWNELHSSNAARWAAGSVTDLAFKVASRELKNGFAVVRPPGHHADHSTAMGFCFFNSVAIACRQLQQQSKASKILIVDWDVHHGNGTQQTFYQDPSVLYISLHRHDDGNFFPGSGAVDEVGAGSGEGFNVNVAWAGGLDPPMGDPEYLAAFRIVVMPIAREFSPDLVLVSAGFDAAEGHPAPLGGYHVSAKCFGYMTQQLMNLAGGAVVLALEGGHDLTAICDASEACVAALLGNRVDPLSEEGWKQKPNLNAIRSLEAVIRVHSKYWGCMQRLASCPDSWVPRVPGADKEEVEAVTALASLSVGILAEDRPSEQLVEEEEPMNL
UniProt Q9BY41: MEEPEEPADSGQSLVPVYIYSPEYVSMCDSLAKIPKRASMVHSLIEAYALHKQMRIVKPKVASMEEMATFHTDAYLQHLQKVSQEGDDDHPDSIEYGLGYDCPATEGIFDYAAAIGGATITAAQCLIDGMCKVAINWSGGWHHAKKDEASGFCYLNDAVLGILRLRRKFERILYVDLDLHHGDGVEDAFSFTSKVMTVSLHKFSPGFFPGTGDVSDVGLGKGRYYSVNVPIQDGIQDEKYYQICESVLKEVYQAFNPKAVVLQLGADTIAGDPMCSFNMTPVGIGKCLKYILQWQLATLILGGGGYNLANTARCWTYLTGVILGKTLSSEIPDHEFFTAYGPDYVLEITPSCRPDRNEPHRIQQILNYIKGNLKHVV
UniProt P56524: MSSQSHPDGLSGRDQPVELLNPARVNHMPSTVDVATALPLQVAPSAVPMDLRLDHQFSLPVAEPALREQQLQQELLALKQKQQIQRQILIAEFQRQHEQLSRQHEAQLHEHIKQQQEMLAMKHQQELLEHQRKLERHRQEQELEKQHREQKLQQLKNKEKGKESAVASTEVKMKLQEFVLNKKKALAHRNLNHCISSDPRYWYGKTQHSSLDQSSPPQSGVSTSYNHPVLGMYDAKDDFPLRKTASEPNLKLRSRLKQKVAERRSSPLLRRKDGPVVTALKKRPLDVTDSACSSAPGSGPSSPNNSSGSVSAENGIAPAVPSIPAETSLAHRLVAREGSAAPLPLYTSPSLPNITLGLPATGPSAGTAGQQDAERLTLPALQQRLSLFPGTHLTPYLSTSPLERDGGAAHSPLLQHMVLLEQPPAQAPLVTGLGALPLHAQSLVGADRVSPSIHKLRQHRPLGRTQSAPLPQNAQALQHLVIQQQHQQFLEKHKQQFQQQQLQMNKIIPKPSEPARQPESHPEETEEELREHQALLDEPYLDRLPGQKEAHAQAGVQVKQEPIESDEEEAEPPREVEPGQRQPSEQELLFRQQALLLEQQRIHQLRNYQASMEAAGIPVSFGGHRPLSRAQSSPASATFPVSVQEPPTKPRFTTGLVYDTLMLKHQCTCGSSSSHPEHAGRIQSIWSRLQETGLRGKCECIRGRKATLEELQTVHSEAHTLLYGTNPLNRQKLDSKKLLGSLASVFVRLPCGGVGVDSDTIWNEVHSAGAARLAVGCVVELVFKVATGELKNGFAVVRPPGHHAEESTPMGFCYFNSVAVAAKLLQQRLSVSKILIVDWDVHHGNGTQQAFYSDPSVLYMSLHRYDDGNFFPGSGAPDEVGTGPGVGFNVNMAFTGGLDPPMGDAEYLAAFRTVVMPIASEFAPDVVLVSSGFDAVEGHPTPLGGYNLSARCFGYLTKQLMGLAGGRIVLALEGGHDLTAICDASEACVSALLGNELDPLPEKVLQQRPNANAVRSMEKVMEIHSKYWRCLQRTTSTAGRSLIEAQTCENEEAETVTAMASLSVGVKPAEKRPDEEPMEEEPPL

In ChEMBL document CHEMBL5150061, “Design and Synthesis of Fibroblast Growth Factor Receptor (FGFR) and Histone Deacetylase (HDAC) Dual Inhibitors for the Treatment of Cancer” (J Med Chem, 2022):

What was measured:
[1] = system: Platelet-derived growth factor receptor alpha (Homo sapiens), P16234 [V561D]; conditions: dose 100.0 nM
[2] = biological target: Vascular endothelial growth factor receptor 1 (Homo sapiens) (UniProt P17948); conditions: dose 100.0 nM
[3] = biological target: Proto-oncogene tyrosine-protein kinase receptor Ret (Homo sapiens) (UniProt P07949); conditions: dose 100.0 nM
[4] = biological target: Tyrosine-protein kinase Yes (Homo sapiens) (UniProt P07947); conditions: dose 100.0 nM
[5] = biological target: Histone deacetylase (Homo sapiens) (UniProt Q13547+O15379+Q9UBN7+Q92769+Q9UQL6+Q8WUI4+Q9BY41+Q96DB2+P56524+Q9UKV0+Q969S8); conditions: SNU-16, dose 1-100 nM, time 36.0 hrs

SMILES: COc1cc(OC)cc(N(CCNC(C)C)c2ccc3ncc(-c4cnn(CCCCCCC(=O)NO)c4)nc3c2)c1
- inhibition [1]: > 90%
- inhibition [2]: > 90%
- inhibition [3]: > 90%
- inhibition [4]: > 90%
- inhibition [5]: Active

Active and inactive are the calls of the source. The rule behind the calls is not given here.
